We go through four compounds from patent US11168088B2 (SHANGHAI HAIYAN PHARMACEUTICAL TECHNOLOGY CO., LTD., priority 2016, dated 2021).

The chains behind the UniProt entries cited, without tags or fusion partners. Residues count along the entry.
UniProt P06493, whole entry: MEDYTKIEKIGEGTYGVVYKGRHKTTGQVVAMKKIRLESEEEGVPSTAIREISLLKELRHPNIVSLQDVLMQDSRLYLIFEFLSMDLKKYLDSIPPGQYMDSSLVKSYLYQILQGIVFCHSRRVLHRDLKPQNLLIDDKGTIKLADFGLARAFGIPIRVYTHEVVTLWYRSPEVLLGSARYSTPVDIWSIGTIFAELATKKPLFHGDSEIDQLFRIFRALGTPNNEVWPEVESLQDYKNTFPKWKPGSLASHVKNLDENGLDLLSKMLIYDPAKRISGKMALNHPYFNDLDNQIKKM
UniProt P11802, 2-303 limits assumed: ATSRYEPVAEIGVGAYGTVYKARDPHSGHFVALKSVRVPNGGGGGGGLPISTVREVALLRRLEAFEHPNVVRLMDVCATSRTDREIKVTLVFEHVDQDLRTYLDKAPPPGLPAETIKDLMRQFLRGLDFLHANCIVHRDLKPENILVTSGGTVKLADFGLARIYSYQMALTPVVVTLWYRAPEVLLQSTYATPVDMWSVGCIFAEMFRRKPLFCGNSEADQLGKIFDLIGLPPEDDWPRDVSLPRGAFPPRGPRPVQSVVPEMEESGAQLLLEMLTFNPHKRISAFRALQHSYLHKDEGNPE
UniProt Q00534, whole entry: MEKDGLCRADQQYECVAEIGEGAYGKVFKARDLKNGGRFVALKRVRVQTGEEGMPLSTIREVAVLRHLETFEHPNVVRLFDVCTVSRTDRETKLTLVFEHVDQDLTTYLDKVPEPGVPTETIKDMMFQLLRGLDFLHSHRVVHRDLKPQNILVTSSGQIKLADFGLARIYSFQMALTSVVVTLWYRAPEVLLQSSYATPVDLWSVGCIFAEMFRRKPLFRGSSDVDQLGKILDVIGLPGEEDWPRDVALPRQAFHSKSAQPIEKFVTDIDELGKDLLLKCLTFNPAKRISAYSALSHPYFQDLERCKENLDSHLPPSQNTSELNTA
UniProt P14635, whole entry partner: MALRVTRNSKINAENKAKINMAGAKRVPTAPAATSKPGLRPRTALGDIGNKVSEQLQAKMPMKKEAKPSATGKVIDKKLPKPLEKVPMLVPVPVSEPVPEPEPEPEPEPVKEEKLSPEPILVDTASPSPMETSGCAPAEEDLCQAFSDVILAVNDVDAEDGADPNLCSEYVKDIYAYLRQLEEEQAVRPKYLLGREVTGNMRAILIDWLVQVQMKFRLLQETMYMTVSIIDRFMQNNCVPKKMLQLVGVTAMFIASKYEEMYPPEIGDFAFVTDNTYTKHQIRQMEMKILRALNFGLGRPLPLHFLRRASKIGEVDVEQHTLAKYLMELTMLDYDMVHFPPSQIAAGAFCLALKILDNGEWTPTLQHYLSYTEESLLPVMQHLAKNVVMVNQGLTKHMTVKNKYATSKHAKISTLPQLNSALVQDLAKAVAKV

The term IC50 denotes the concentration that inhibits the measured activity by half.

For one assay, the target named is CDK1 (Homo sapiens (Human), UniProt P06493). Nature of the assay: In vitro kinase test (LANCE Ultra), CDK1. Conditions: read-out: CDK1 IC50. On the technique in general: Time-resolved FRET reads energy transfer from a long-lived donor to a nearby acceptor.
The next assay deals with CDK4 (Homo sapiens (Human), UniProt P11802). Description: In vitro kinase test (LANCE Ultra), CDK4. Conditions: read-out: CDK4 IC50.
Another assay concerns the target CDK2 (Homo sapiens (Human), UniProt P24941). Description: In vitro kinase test (LANCE Ultra), CDK2. Conditions: read-out: CDK2 IC50.
In the next assay the target is CDK6 (Homo sapiens (Human), UniProt Q00534). Nature of the assay: In vitro kinase test (LANCE Ultra), CDK6. The settings on record: read-out: CDK6 IC50.

Take `CCn1nc2c(c1C(C)C)-c1nc(Nc3ccc(N4CCNCC4)cn3)ncc1C2`: the IC50 came out at 7470 nM on CDK1, 15 nM on CDK4, 9460 nM at CDK2 and 201 nM on CDK6.

Take `CC(C)n1c(C2CC2)nc2c1-c1nc(Nc3ccc(N4CCNCC4)cn3)ncc1C2`: the IC50 came out at 4390 nM on CDK1, 13 nM at CDK4, 4780 nM on CDK2 and 88 nM on CDK6.

For the compound `CC(C)c1[nH]nc2c1-c1nc(Nc3ccc(N4CCNCC4)cn3)ncc1C2`, the IC50 is 8 nM on CDK4 and 132 nM on CDK6.

In the case of `Cc1nc2c(n1C(C)C)-c1nc(Nc3ccc(N4CCNCC4)cn3)ncc1C2`, the IC50 on CDK4 is 23 nM; on CDK6, 30 nM.
